According to publication PMC6917733 (Scientific Reports, 2019):

Columns and labels:
human OTR [1] = target: T1, human OTR (Homo sapiens, UniProt P30559); experiment: β-arrestin-2 recruitment BRET at OTR
T1 sequence (P30559 1-389): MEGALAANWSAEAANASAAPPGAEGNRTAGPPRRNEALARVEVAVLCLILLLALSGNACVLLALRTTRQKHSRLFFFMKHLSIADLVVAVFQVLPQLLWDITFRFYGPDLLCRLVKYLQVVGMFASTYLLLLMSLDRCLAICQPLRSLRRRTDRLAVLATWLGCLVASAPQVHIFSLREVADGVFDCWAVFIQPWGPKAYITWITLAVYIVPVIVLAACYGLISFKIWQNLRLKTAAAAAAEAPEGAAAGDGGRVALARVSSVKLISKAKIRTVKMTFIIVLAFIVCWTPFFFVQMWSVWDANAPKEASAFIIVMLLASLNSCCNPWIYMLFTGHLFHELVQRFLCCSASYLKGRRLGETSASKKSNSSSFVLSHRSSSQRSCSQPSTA

human OTR [2] = target: T1, human OTR; experiment: IP1 accumulation (IP-One Gq assay), HEK293 cells expressing OTR

SMILES: CC[C@H](C)[C@@H]1NC(=O)[C@H](Cc2ccc(O)cc2)NC(=O)[C@@H](N)CSSC[C@@H](C(=O)N2CCC[C@H]2C(=O)N[C@@H](CC(C)C)C(=O)NCC(N)=O)NC(=O)[C@H](CC(N)=O)NC(=O)[C@H](CCC(N)=O)NC1=O [OT, oxytocin, reference compound]
- Emax (human OTR [1]): 100%
- Emax (human OTR [2]): 100%
